# Target: DNA (cytosine-5)-methyltransferase 1 (Homo sapiens, UniProt P26358)
# Amino acid sequences for entries named in this document (tags omitted). A change or cut given only in a name is not applied to a line headed by its entry.
# UniProt P26358: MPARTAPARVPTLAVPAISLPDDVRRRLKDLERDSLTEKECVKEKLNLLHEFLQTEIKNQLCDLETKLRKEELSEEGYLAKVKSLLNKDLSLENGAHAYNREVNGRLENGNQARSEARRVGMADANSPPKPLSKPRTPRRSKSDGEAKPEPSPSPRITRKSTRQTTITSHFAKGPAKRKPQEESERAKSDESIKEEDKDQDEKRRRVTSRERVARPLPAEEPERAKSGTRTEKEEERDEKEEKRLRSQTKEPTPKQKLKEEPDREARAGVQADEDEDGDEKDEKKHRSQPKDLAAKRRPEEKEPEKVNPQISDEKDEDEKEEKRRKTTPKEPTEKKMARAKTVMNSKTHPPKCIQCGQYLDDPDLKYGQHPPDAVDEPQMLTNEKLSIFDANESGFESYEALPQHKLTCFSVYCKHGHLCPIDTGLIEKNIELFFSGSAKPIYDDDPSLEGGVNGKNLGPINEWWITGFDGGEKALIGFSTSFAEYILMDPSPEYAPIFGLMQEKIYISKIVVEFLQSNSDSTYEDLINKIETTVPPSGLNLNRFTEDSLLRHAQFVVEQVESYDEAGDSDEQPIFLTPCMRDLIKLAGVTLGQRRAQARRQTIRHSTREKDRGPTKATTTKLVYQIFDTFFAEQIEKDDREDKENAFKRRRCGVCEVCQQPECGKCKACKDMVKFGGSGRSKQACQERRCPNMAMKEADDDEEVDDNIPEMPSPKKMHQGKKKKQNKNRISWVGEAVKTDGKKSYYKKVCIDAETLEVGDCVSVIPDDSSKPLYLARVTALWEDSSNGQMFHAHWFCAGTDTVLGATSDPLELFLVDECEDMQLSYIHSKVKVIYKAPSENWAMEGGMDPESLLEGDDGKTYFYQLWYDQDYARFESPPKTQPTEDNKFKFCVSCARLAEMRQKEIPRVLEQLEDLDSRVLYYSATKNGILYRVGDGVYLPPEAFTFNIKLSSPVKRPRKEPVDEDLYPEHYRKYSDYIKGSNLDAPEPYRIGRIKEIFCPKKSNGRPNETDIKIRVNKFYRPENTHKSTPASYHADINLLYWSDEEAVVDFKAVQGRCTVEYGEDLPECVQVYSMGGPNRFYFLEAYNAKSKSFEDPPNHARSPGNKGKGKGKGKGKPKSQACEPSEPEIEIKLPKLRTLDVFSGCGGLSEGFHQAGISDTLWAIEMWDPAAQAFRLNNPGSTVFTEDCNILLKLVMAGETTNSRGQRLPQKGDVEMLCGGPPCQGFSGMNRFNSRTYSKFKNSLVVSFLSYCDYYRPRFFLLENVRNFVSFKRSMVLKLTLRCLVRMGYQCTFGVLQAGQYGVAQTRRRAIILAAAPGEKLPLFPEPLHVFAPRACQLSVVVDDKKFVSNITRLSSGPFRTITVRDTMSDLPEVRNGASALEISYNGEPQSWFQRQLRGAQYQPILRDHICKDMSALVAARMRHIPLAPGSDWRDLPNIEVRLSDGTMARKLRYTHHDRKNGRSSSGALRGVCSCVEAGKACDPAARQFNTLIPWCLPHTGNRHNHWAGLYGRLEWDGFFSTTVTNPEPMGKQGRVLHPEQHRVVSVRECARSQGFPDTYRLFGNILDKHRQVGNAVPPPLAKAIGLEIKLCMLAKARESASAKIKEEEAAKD
# Test: Binding affinity to human DNMT1 expressed in Escherichia coli assessed as binding constant by SPR analysis
row,SMILES,Ka
1,O=C(O)[C@H](Cn1c2ccc(Cl)cc2c2cc(Cl)cc(Cl)c21)N1C(=O)c2ccccc2C1=O,194000 M⁻¹ s⁻¹
2,CC(C)(C)c1ccc2c(c1)c1cc(C(C)(C)C)ccc1n2C[C@@H](C(=O)O)N1C(=O)c2ccccc2C1=O,81800 M⁻¹ s⁻¹
3,CC(C)(C)c1ccc2c(c1)c1cc(C(C)(C)C)ccc1n2C[C@H](C(=O)O)N1C(=O)c2ccccc2C1=O,73700 M⁻¹ s⁻¹

# Second part, the molecule after the results:
row,Ka,SMILES
1,65600 M⁻¹ s⁻¹,CC(C)(C)c1ccc2c(c1)c1cc(C(C)(C)C)ccc1n2CC(C(=O)O)N1C(=O)c2ccccc2C1=O (racemic)
2,218000 M⁻¹ s⁻¹,O=C(O)[C@@H](Cn1c2ccc(Cl)cc2c2cc(Cl)cc(Cl)c21)N1C(=O)c2ccccc2C1=O
3,219000 M⁻¹ s⁻¹,O=C(O)C(Cn1c2ccc(Cl)cc2c2cc(Cl)cc(Cl)c21)N1C(=O)c2ccccc2C1=O (racemic)

# From ChEMBL document CHEMBL5579818, “Identification of 3-(9H-carbazol-9-yl)-2-(1,3-dioxoisoindolin-2-yl)propanoic acids as promising DNMT1 inhibitors” (Eur J Med Chem, 2024)
